Measurements published in ChEMBL document CHEMBL1275469, “VIM-15 and VIM-16, two new VIM-2-like metallo-beta-lactamases in Pseudomonas aeruginosa isolates from Bulgaria and Germany” (2008).

Key:
Pseudomonas aeruginosa [1] = assay: Ratio of Kcat to Km for Pseudomonas aeruginosa 166301 beta-lactamase VIM-16
[2] = tested on: C[C@@H](O)[C@H]1C(=O)N2C(C(=O)O)=C(SCCNC=N)C[C@H]12; assay: (§1) Activity of Pseudomonas aeruginosa COL-1 beta-lactamase VIM-2
[3] = tested on: C[C@@H](O)[C@H]1C(=O)N2C(C(=O)O)=C(S[C@@H]3CN[C@H](C(=O)N(C)C)C3)[C@H](C)[C@H]12; assay: as §1
[4] = tested on: C[C@@H](O)[C@H]1C(=O)N2C(C(=O)O)=C(SCCNC=N)C[C@H]12; assay: (§2) Ratio of Kcat to Km for Pseudomonas aeruginosa COL-1 beta-lactamase VIM-2
[5] = tested on: C[C@@H](O)[C@H]1C(=O)N2C(C(=O)O)=C(S[C@@H]3CN[C@H](C(=O)N(C)C)C3)[C@H](C)[C@H]12; assay: as §2
Pseudomonas aeruginosa [6] = settings: 9551, Urine

CC1(C)S[C@@H]2[C@H](NC(=O)Cc3ccccc3)C(=O)N2[C@H]1C(=O)O
kcat/Km (Pseudomonas aeruginosa [1]): 510000 M⁻¹ s⁻¹

Beta-lactamase VIM-2 (Pseudomonas aeruginosa) (from UniProt Q9K2N0)
Km [2]: 60 µM
kcat [2]: 20 s⁻¹
Km [3]: 40 µM
kcat [3]: 2.1 s⁻¹
kcat/Km [4]: 330000 M⁻¹ s⁻¹
kcat/Km [5]: 53000 M⁻¹ s⁻¹

C[C@@H](O)[C@H]1C(=O)N2C(C(=O)O)=C(S[C@@H]3CN[C@H](C(=O)N(C)C)C3)[C@H](C)[C@H]12 [MEROPENEM]
kcat/Km (Pseudomonas aeruginosa [1]): 70000 M⁻¹ s⁻¹

GENTAMICIN
MIC (Pseudomonas aeruginosa [6]): 0.5 µg/mL
